Test results: US20240270821A1, “GIP/GLP1/GCG TRI-RECEPTOR AGONISTS AND USES THEREOF” (priority 2023, published 2024)

Amino acid sequences for entries named in this document (tags omitted). Residues count along the entry.
UniProt P43220, 24-463: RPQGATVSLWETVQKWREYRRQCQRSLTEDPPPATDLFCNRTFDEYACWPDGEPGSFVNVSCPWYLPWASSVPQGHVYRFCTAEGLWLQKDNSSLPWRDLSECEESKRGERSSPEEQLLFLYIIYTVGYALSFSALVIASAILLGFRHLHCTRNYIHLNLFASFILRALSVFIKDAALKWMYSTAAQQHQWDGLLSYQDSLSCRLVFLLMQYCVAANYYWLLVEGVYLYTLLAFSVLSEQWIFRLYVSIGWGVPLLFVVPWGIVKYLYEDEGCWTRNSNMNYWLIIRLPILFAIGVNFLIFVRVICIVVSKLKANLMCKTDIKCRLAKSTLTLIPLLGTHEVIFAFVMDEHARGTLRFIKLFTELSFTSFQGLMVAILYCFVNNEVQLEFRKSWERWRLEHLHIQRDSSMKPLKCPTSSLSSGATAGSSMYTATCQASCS

Molecular target: hGLP-1R (Homo sapiens, UniProt P43220)
Experiment: Functional cAMP activity in the presence of 1% HSA
Assay type: cell-based
Conditions: read-out: cAMP Rel EC50, hGLP-1R

CC[C@H](C)[C@H](NC(=O)[C@H](Cc1ccccc1)NC(=O)[C@H](C)NC(=O)C(C)(C)NC(=O)[C@H](CCC(N)=O)NC(=O)[C@H](C)NC(=O)[C@H](CCCCNC(=O)CC[C@H](NC(=O)CC[C@H](NC(=O)CCCCCCCCCCCCCCCCC(=O)O)C(=O)O)C(=O)O)NC(=O)[C@H](CCCCN)NC(=O)[C@H](CC(=O)O)NC(=O)[C@H](CC(C)C)NC(=O)[C@H](CC(C)C)NC(=O)[C@@H](NC(=O)[C@H](CO)NC(=O)[C@H](Cc1ccncc1)NC(=O)[C@H](CC(=O)O)NC(=O)[C@H](CO)NC(=O)[C@@H](NC(=O)[C@](C)(Cc1ccccc1F)NC(=O)[C@@H](NC(=O)CNC(=O)[C@H](CCC(N)=O)NC(=O)C(C)(C)NC(=O)[C@@H](N)Cc1ccc(O)cc1)[C@@H](C)O)[C@@H](C)O)[C@@H](C)CC)C(=O)N[C@@H](CCC(=O)O)C(=O)N[C@@H](Cc1ccc(O)cc1)C(=O)N[C@@H](CC(C)C)C(=O)N[C@H](C(=O)N[C@@H](CCC(=O)O)C(=O)NCC(=O)NCC(=O)N1CCC[C@H]1C(=O)N[C@@H](CO)C(=O)N[C@@H](CO)C(=O)NCC(=O)N[C@@H](C)C(=O)N1CCC[C@H]1C(=O)N1CCC[C@H]1C(=O)N1CCC[C@H]1C(=O)N[C@@H](CO)C(=O)NCC(=O)N[C@H](C(=O)N[C@@H](CCC(=O)O)C(N)=O)[C@@H](C)O)[C@@H](C)O [Example 554] was tested. Which EC50 did it give?
Its EC50 is 60.8 nM.
